Measured values as given in ChEMBL document CHEMBL1137202, “Synthesis and biological activity of new potential agonists for the human adenosine A2A receptor” (J Med Chem, 2004).

By UniProt entry, the sequences of proteins in these tests, tags left out.
UniProt P30542, whole entry: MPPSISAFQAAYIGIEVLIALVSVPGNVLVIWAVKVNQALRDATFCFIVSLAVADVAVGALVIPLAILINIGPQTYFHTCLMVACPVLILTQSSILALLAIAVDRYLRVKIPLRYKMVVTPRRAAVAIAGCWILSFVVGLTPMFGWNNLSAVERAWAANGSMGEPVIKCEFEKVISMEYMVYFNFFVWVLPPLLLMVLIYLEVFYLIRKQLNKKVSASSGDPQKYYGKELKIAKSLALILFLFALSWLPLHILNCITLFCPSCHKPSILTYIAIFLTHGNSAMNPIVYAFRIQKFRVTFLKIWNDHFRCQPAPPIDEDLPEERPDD

Molecular target: Adenosine receptor A1 (Homo sapiens, UniProt P30542)
Assay: Inhibition of [3H]DPCPX binding to human adenosine A1 receptor expressed in CHO cells
Assay type: cell-based

Ki: 600 nM
SMILES: CCn1nnc([C@H]2O[C@@H](n3cnc4c(N)nc(N[C@H](CO)Cc5ccc(O)cc5)nc43)[C@H](O)[C@@H]2O)n1
